{"source": "patent US20160139118", "molecular_target": "Amyloid Beta-Protein (1-42), P05067"}
{"protein": "Complement factor I, purified human serum protein (Complement Technology) (protein) KVTYTSQEDLVEKKCLAKKYTHLSCDKVFCQPWQRCIEGTCVCKLPYQCPKNGTAVCATNRRSFPTYCQQKSLECLHPGTKFLNNGTCTAEGKFSVSLKHGNTDSEGIVEVKLVDQDKTMFICKSSWSMREANVACLDLGFQQGADTQRRFKLSDLSINSTECLHVHCRGLETSLAECTFTKRRTMGYQDFADVVCYTQKADSPMDDFFQCVNGKYISQMKACDGINDCGDQSDELCCKACQGKGFHCKSGVCIPSQYQCNGEVDCITGEDEVGCAGFASVTQEETEILTADMDAERRRIKSLLPKLSCGVKNRMHIRRKRIVGGKRAQLGDLPWQVAIKDASGITCGGIYIGGCWILTAAHCLRASKTHRYQIWTTVVDWIHPDLKRIVIEYVDRIIFHENYNAGTYQNDIALIEMKKDGNKKDCELPRSIPACVPWSPYLFQPNDTCIVSGWGREKDNERVFSLQWGEVKLISNCSKFYGNRFYEKEMECAGTYDGSIDACKGDSGGPLVCMDANNVTYVWGVVSWGENCGKPEFPGVYTKVANYFDWISYHVGRPFISQYNV", "values": [{"measurement": "CFI needed to cleave 50% of the available C3b after preincubation with 200 µM BAM1-42 (re-analysis, 4-parameter logistic)", "value": "after preincubation with BAM1-42, approximately 3200 ng/ml CFI equivalent were needed to achieve the same rate of cleavage"}]}
